## Apparent affinities of Ab-14 variants for a coronavirus HR2 peptide

Reference: Engelhart et al. 2022, doi:10.1038/s41597-022-01779-4. File: FLAb, binding data.

All variants were tested on one target, the spike HR2 peptide PDVDLGDISGINAS (SARS-CoV-2).

Each scFv is VH, a 15-residue (Gly4Ser)3 linker, VL, as in the parent Ab-14, and differs from it in the CDRs of the heavy chain only.
VH: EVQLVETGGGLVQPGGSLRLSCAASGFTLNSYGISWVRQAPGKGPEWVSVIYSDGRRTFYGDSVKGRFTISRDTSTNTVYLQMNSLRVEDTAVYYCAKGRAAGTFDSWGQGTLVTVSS
VL: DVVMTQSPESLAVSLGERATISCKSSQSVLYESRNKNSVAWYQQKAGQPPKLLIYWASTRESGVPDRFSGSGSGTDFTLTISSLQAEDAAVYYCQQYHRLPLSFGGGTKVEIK

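The starting antibody came from a phage panning campaign against this peptide. AAYL49 was designed without a model: most single CDR substitutions and a random sample of double and triple ones. AlphaSeq pools MATa yeast showing the antibodies with MATalpha yeast showing the peptide. Pairs that bind mate more often; barcode pairs of the diploids are counted by sequencing. The ratio of observed to expected reads was calibrated, replicate by replicate, on BCL2-family standards whose Kd was known from biolayer interferometry. The assay was run in three technical replicates.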

Substitutions are numbered in sequence along the VH above, starting at 1 (not Kabat).
Every variant below is changed at G26 of the VH (sequential numbering).
Each Kd is an estimate from the mating assay, the geometric mean of the replicates in which the pair was seen; lower is stronger.
An entry "no signal" has no value in the source: the pair was not observed among the diploids in any replicate. This suggests poor binding but is not conclusive.
Background: pairings of library AAYL49 with three empty control strains gave a value in 15% of cases (median 11 µM, 5th percentile 680 nM). Values in that range, when seen in few replicates, are hard to tell from nonspecific mating.

| changes | Kd | replicates with signal |
|---|---|---|
| G26H N30C | 800 nM | 1 of 3 |
| G26R D54I Y60P | 310 µM | 2 of 3 |
| G26S S31W Y60R | no signal | 0 of 3 |
| G26R S53D F105C | no signal | 0 of 3 |
| G26W I34F | no signal | 0 of 3 |
| G26F G55C S63V | no signal | 0 of 3 |
| G26D D54C | no signal | 0 of 3 |
| G26A T28D S63P | 31 nM | 3 of 3 |
| G26L V50H F59C | no signal | 0 of 3 |
| G26W T28D S107F | 850 nM | 3 of 3 |
| G26R I34M T104H | no signal | 0 of 3 |
| G26L T58M Y60L | 1.2 µM | 1 of 3 |
| G26K F27A N30L | 180 nM | 1 of 3 |
| G26A S63V | 2.4 µM | 3 of 3 |
| G26L F59M S107R | 32 µM | 2 of 3 |
| G26V V50D D54M | no signal | 0 of 3 |
| G26R A102R T104K | no signal | 0 of 3 |
| G26S F105G S107T | no signal | 0 of 3 |
| G26F S35L | no signal | 0 of 3 |
| G26L D54V T104L | no signal | 0 of 3 |
| G26S I34P T104H | 160 µM | 2 of 3 |
| G26S T28C D62T | no signal | 0 of 3 |
| G26A | 1.3 µM | 3 of 3 |
| G26L L29G Y60G | 7.1 µM | 1 of 3 |
| G26C S35E T104G | 680 nM | 1 of 3 |
| G26I S35M D106G | 440 µM | 1 of 3 |
| G26Y S63A R100Y | no signal | 0 of 3 |
| G26F Y52A F105I | 5.6 µM | 1 of 3 |
| G26F K65Q R100Q | 1.7 µM | 2 of 3 |
| G26M Y32W K65N | 21 µM | 1 of 3 |
| G26F V50Y | 22 µM | 2 of 3 |
| G26L S63Y F105W | 700 nM | 1 of 3 |
| G26L T28L I34W | 240 µM | 1 of 3 |
| G26P G61C D62T | no signal | 0 of 3 |
| G26L G99H G103D | 3.1 µM | 1 of 3 |
| G26K | 7.7 nM | 3 of 3 |
| G26L S63I V64F | 180 nM | 3 of 3 |
| G26A G33Y R57N | no signal | 0 of 3 |
| G26F A102H T104R | no signal | 0 of 3 |
| G26V L29P A102T | no signal | 0 of 3 |
| G26L Y52E | no signal | 0 of 3 |
| G26S S31D G33E | 40 µM | 2 of 3 |
| G26C N30C Y32I | 15 µM | 1 of 3 |
| G26L S63M R100I | no signal | 0 of 3 |
| G26V T58E R100C | no signal | 0 of 3 |
| G26P V64S F105W | no signal | 0 of 3 |
| G26I S53A Y60Q | no signal | 0 of 3 |

The opening 6 entries, copied out:

| changes | Kd | replicates with signal |
|---|---|---|
| G26H N30C | 800 nM | 1 of 3 |
| G26R D54I Y60P | 310 µM | 2 of 3 |
| G26S S31W Y60R | no signal | 0 of 3 |
| G26R S53D F105C | no signal | 0 of 3 |
| G26W I34F | no signal | 0 of 3 |
| G26F G55C S63V | no signal | 0 of 3 |

In this assay the parent's reference entry averaged 4.4 nM; its copy inside this library read 13 µM (one replicate of three).